{
  "source": "patent US20180177850A1",
  "data": [
    {"molecular_target": "human glucagon receptor (human), P47871", "assay": "cell-based or functional assay", "units": {"EC50 (cAMP, CHO/GCGR)": "nM"}, "values": [
      {"binder": "HSQGTFTSDYSRYLDEEAVELFIEWLMNTK (modifications not checked)", "note": "[oxyntomodulin derivative of SEQ ID NO: 13]", "EC50 (cAMP, CHO/GCGR)": "> 1000"},
      {"binder": "HSQGTFTSDYSRYLDEEAVRLFIEWIRNTKRNRNNIA (modifications not checked)", "note": "[oxyntomodulin derivative of SEQ ID NO: 17]", "EC50 (cAMP, CHO/GCGR)": "> 1000"},
      {"binder": "HSQGTFTSDYSKYLDEEAVRLFIEWLMNTKRNRNNIA (modifications not checked)", "note": "[oxyntomodulin derivative of SEQ ID NO: 2]", "EC50 (cAMP, CHO/GCGR)": 12.8}
    ]},
    {"molecular_target": "T1, human GLP-1 receptor (human), P43220", "T1 chain": "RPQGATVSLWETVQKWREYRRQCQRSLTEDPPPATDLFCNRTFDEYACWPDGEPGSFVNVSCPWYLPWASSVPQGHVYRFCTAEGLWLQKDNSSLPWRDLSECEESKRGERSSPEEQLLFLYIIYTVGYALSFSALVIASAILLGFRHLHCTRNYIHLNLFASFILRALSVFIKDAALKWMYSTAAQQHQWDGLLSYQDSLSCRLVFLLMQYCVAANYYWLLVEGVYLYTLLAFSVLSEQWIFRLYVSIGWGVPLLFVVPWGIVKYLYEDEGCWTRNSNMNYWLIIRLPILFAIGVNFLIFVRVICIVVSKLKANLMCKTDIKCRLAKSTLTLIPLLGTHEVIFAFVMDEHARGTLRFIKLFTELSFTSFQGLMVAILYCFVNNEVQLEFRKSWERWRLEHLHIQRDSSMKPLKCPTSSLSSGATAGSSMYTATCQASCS", "assay": "cell-based or functional assay", "units": {"EC50 (cAMP, CHO/GLP-1R)": "nM"}, "values": [
      {"binder": "HGQGTFTSDYSRYLEEEAVRLFIEWLKNGGPSSGAPPPS (modifications not checked)", "note": "[oxyntomodulin derivative of SEQ ID NO: 4]", "EC50 (cAMP, CHO/GLP-1R)": 5.5},
      {"binder": "HSQGTFTSDYSRYLDEEAVELFIEWLMNTK (modifications not checked)", "note": "[oxyntomodulin derivative of SEQ ID NO: 13]", "EC50 (cAMP, CHO/GLP-1R)": "> 1000"},
      {"binder": "HSQGTFTSDYSRYLDEEAVRLFIEWIRNTKRNRNNIA (modifications not checked)", "note": "[oxyntomodulin derivative of SEQ ID NO: 17]", "EC50 (cAMP, CHO/GLP-1R)": 97.9},
      {"binder": "HSQGTFTSDYSKYLDEEAVRLFIEWLMNTKRNRNNIA (modifications not checked)", "note": "[oxyntomodulin derivative of SEQ ID NO: 2]", "EC50 (cAMP, CHO/GLP-1R)": 51.8}
    ]}
  ]
}
